Biological target: PIK3CB (Human) (UniProt P42338)

Chains of the proteins cited; added tags and fusions are not shown. Lines headed by an entry give the natural chain unless they say otherwise; changes in a name come on top.
UniProt P42338: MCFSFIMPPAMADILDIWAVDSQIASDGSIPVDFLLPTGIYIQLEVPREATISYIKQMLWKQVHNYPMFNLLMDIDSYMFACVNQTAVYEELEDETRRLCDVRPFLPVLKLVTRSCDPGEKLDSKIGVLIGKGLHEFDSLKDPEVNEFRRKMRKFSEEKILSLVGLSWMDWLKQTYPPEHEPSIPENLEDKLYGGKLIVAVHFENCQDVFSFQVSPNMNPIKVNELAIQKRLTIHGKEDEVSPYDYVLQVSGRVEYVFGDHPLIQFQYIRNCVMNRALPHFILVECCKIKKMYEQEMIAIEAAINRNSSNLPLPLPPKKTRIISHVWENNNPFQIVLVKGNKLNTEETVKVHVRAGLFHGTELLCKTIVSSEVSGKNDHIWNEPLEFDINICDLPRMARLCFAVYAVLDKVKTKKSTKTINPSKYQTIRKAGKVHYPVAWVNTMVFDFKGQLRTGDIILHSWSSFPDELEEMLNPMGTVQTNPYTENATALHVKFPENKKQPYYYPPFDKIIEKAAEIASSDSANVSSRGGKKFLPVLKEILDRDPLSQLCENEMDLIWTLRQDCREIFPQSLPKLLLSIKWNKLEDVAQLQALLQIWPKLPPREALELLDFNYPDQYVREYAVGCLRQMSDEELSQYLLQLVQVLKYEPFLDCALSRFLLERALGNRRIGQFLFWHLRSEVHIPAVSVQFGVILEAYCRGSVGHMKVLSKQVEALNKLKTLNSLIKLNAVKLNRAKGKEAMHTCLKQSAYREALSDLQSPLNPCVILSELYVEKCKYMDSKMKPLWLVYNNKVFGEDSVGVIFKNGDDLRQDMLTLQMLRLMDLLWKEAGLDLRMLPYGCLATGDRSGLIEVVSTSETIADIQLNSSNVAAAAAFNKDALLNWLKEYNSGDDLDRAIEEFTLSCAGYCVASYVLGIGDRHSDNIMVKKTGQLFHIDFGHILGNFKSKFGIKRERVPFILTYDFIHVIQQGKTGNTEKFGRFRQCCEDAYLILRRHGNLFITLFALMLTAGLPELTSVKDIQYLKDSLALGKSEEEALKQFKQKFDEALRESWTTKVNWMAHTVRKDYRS

IC50: < 1000 nM
SMILES: CC(C)n1nc(-c2cc(F)c3cn[nH]c3c2)c2c(N)ncnc21
